Reference: ChEMBL document CHEMBL1128198, “New drug developments for opportunistic infections in immunosuppressed patients: Pneumocystis carinii” (J Med Chem, 1995)
pIC50, pKi: −log10 of the molar value.

Experiments:
[1] = target: T1, Dihydrofolate reductase (Pneumocystis carinii, UniProt P16184)
T1 sequence (P16184 whole entry): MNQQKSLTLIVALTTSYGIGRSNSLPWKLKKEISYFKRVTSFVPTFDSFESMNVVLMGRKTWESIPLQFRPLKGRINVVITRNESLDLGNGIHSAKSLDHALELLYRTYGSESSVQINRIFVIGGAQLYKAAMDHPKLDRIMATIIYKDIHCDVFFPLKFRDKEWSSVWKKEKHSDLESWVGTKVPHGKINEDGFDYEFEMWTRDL

[2] = target: T1, Dihydrofolate reductase; remark: listed apart in the source

Compound | pIC50 [1] | pKi [2]
COc1cc(NCc2cnc3nc(N)nc(N)c3c2C)cc(OC)c1OC | 7.89 | –
COc1ccc(OC)c(Cc2cnc3nc(N)nc(N)c3c2C)c1 [PIRITREXIM] | – | 9.84
